Literature values, collected in patent US9700872B1, “Superpolar chromatographic stationary phases and extraction sorbents and their methods of synthesis” (THE FLORIDA INTERNATIONAL UNIVERSITY BOARD OF TRUSTEES, priority 2016, dated 2017).

Details: octanol/water; Top 100 EPA Priority Pollutants (Table 2)

c1ccc2ccccc2c1 [Naphthalene]
Log Kow: 3.3
